Legend:
[1] = molecular target: T1, DOR-Gqi5 (Mus musculus, UniProt P32300); type: cell-based
T1 construct: signal peptide (N); expressed in transfected cells; host or cells: AEQ cells (Flp-in T-rex 293 with aequorin)

By UniProt entry, the sequences of proteins in these tests, tags left out. Where a name states a change or a piece, a line headed by the entry shows the natural chain unless it says otherwise. Chains listed by the source or under a name are the forms on record and can include a tag or linker. Residues count along the entry.
UniProt P32300, with tags, fused parts or gaps: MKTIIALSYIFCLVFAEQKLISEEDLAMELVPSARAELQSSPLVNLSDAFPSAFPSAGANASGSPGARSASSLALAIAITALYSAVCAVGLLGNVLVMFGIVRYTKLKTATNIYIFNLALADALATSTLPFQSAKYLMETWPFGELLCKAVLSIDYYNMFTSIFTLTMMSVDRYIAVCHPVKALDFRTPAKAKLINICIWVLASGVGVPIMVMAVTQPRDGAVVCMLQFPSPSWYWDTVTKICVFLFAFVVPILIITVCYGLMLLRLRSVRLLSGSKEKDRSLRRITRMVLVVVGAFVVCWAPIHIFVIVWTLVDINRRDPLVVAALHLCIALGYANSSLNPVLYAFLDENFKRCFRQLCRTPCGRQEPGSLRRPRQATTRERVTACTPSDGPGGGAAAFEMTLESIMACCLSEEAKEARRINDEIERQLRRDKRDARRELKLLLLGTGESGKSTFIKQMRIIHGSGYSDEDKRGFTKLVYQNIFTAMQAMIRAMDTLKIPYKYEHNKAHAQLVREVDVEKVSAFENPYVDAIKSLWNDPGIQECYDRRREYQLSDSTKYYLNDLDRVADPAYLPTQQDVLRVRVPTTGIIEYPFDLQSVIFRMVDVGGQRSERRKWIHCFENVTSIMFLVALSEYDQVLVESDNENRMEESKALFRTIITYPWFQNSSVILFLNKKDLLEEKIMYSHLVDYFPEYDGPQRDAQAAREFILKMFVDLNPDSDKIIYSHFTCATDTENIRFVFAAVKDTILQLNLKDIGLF
UniProt P14416, 1-414 isoform P14416-2: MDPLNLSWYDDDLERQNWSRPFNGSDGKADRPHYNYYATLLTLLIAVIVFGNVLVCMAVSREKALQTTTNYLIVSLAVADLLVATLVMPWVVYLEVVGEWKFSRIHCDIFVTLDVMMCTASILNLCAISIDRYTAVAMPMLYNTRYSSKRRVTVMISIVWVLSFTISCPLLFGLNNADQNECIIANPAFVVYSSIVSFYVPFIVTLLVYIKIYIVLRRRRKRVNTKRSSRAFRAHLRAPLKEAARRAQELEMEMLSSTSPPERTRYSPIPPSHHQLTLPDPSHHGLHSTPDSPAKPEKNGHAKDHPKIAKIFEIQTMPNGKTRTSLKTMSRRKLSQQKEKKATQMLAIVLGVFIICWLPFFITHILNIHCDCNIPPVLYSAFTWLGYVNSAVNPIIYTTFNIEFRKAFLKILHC

[2] = molecular target: D2R and DOR-Gqi5 (UniProt P14416+P32300); assay: Aequorin assay in cells stably coexpressing D2R and DOR-Gqi5

Q: How did the “activation of DOR-Gqi5” value [1] turn out when DPDPE was run?
A: about 10%

Q: What about the “signaling at DOR-Gqi5” value [1] of the same substance?
A: signals effectively

Q: And the “enhancement of the potency of quinpirole” value [2]?
A: 10 fold
